Compound activity deposited in PubChem BioAssay by National Center for Advancing Translational Sciences (NCATS).
A selection: hits, their analogues and other compounds. The true share with any hit is near 3.7%.
TCR act = activates T cell receptor signaling; Potency, µM (top dose mostly 9.22 µM), hits mostly activators; primary human leukocytes, anti-CD3, IL-2 HTRF, 48 h; 330,000 tested, under 10 active
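Primary human leukocytes incubated 48 hr with anti-CD3 beads plus compound, without co-stimulation. Secreted IL-2 measured by HTRF (europium cryptate/d2 anti-IL-2 pair, 320 nm excitation, 665 nm emission).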
Nrf2 activator = activators of Nrf2 (ARE) signaling | 410,000 compounds, 0.31% hits | Potency, µM (doses to about 46.1 µM), hits mostly activators | AREc32 ARE-luciferase reporter (MCF7-derived line), luminescence, 24 h | AID 624171; note: nearly all actives have a fitted effect of over 65% in size
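Luciferase luminescence (Steady-Glo, 30 min at room temperature) served as the read-out of ARE activation in AREc32 cells treated with compounds for 24 hr at 37 deg C.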
ClpP mod = qHTS Assay for Activators of ClpP; purified B. subtilis ClpP, FRET peptide cleavage, 20 min; Potency, µM (titrated, usually from 57.5 µM); 340,000 compounds, 1.9% hits; active = well fitted falling curve with a large enough effect; inconclusive = small, poorly fitted or top-dose-only effect; inactive = no such curve, though single readings can be large or run the other way; note: the source files actives as falling curves though it sought activators and does not explain the sign; nearly all actives have a fitted effect of over 65% in size
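ClpP 10 microg/mL final, pH 8 Tris/KCl buffer with BSA, glycerol, Tween-20; compound pinned in; FRET-FV substrate; RT 20 min; Ex320/Em430; ΔFRET vs ADEP 5.8 microM, DMSO, no enzyme.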
Nrf2 block = inhibitors of Nrf2 signaling; 360,000 compounds, 2.1% hits; AID 504444; A549 ARE-Fluc reporter, luciferase luminescence, 18-24 h; Potency, µM (series often up to 46 µM), most hits filed as inhibitors; note: nearly all actives have a fitted effect of over 60% in size
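Quantitative HTS in A549 cells stably bearing an antioxidant response element-firefly luciferase construct. Inhibition of Nrf2-driven transcription was scored by luminescence after 18-24 h of compound exposure at 37 °C.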
miR-21 reporter = raises the signal of a miR-21 reporter; Potency, µM (doses to about 38.3 µM); HeLa miR-21 FLuc reporter, luciferase, 48 h; AID 2288; 340,000 tested, under 10 active; active = well fitted rising curve with a large enough effect; inconclusive = small, poorly fitted or top-dose-only effect; inactive = no such curve, though single readings can be large or run the other way;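 further: miR-21 action dims this reporter so a rising signal means less miR-21 action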
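Using DMEM plus 10% FBS, HeLa miR-21-FLuc cells are incubated with test compounds (final up to about 40uM) for 48 hours; firefly luciferase signal is then imaged following reagent-mediated lysis.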
A549 tox = counter-screen for Nrf2 inhibitors: cytotoxicity in A549 cells. A549 ARE-Fluc cells, CellTiter-Fluor viability, 18-24 h. Potency, µM (doses to about 46 µM), most hits filed as inhibitors. 390,000 compounds, 0.16% hits
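Cytotoxicity counterscreen: CellTiter-Fluor fluorescence was measured in A549 ARE_Fluc cells after 18-24 h of compound exposure in a concentration series. The subsequent BugLite luminescent read reports ARE-luciferase activity.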
Large screens that a line does not name were inactive; ! = repeats disagree. Unless noted, calls come from the whole dose curve; as a rule, active = well fitted curve in the direction sought with a large enough effect; inconclusive = small, poorly fitted or top-dose-only effect, or another doubt; inactive = no such curve, though single readings can be large; an effect the other way counts as inactive or inconclusive.

CC(=O)c1c(C)[nH]c(C(=O)OCC(=O)c2c(N)n(CC(C)C)c(=O)n(C)c2=O)c1C	Nrf2 block 18µM (no result: TCR act, miR-21 reporter)
CC(C)Cn1c(N)c(C(=O)COC(=O)C2CCCCC2)c(=O)n(C)c1=O	Nrf2 block inconclusive (no result: TCR act)
CCOC(=O)c1ccc(N2C(=O)c3n[nH]c(-c4ccco4)c3C2c2ccccc2OC)cc1 (stereo unspecified)	Nrf2 block 26µM, miR-21 reporter inconclusive (no result: TCR act)
CCOC(=O)c1ccc(N2C(=O)c3n[nH]c(C)c3C2c2ccccc2OC)cc1 (stereo unspecified)	Nrf2 block 8.2µM (no result: TCR act)
CC(=O)OCC(=O)[C@@]1(O)[C@H](C)C[C@H]2[C@@H]3CCC4=CC(=O)C=C[C@]4(C)[C@@]3(F)[C@@H](O)C[C@@]21C	Nrf2 block inconclusive
C[C@@H]1C[C@H]2[C@@H]3C[C@H](F)C4=CC(=O)C=C[C@]4(C)[C@@]3(F)[C@@H](O)C[C@]2(C)[C@@]1(O)C(=O)COC(=O)C(C)(C)C	Nrf2 block 0.052µM
COCC(=O)N(Cc1cc2cc(OC)ccc2[nH]c1=O)c1ccccc1OC	ClpP mod 28µM, Nrf2 block inconclusive
COCC(=O)N(Cc1cc2cc(OC)ccc2[nH]c1=O)c1ccc(C)cc1	ClpP mod 25µM
Brc1ccccc1OCCCCn1cnc2ccccc21	Nrf2 block 7.3µM (no result: ClpP mod)
CN1CC2=Cc3ccccc3OC23Oc2ccccc2C=C3C1	ClpP mod 3.5µM, miR-21 reporter inconclusive, A549 tox inconclusive (no result: Nrf2 block)
O=C1c2ccccc2OC2(C=Cc3ccccc3O2)N1Cc1ccccc1 (stereo unspecified)	none
CCC(C)NC(=O)C1CC(=O)N(CCc2ccc(F)cc2)C1 (stereo unspecified)	none
Cc1c(P(=S)(c2ccccc2)c2ccccc2)[n+]2ccccc2n1CC(=O)c1ccccc1	none (no result: TCR act, Nrf2 activator, ClpP mod, miR-21 reporter)
CC(C)c1ccc(C(=O)Nc2ccc(-c3nc4ccccc4s3)c(Cl)c2)cc1	ClpP mod inconclusive, Nrf2 block inconclusive (no result: TCR act)
COc1cc2c(cc1OC)-c1cc(NC3CCCC3)nc(=O)n1CC2	ClpP mod 32µM
CCN(CC)c1ccc(Nc2cc3n(c(=O)n2)CCc2cc(OC)c(OC)cc2-3)cc1	Nrf2 block 16µM (no result: ClpP mod)
COc1cc2c(cc1OC)-c1cc(Nc3ccc(F)cc3)nc(=O)n1CC2	ClpP mod inconclusive, Nrf2 block inconclusive
CCO/C=N/c1c(C#N)c2c(c(=S)n1C)COC(C)(C)C2	ClpP mod 3.5µM
CCOc1nc(CC(C)C)c2c(c1C#N)CC(C)(C)OC2	none (no result: ClpP mod)
O=C(COC(=O)CNC(=O)c1ccccc1)Nc1cc(C(F)(F)F)ccc1Cl	none (no result: TCR act, Nrf2 activator, ClpP mod, miR-21 reporter)
CC1(C)CC(=O)C2=C(C1)N(CCN1CCOCC1)C1=C(C(=O)CC(C)(C)C1)C2c1cccc(F)c1	ClpP mod 28µM
COc1c2ccoc2nc2c(OC)cccc12	ClpP mod 16µM
COc1cccc2c(=O)ccoc12	ClpP mod inconclusive
Cc1cccc(C)c1-n1nnnc1C1(C)CCC(=O)N1C1CC1 (stereo unspecified)	none (no result: TCR act, Nrf2 block, miR-21 reporter, A549 tox)
O=C(c1ccc2c(=O)n(C3CCCC3)c(=S)[nH]c2c1)N1CCCCCC1	Nrf2 block 16µM (no result: ClpP mod)
O=C(c1ccc2c(=O)n(-c3ccccc3)c(=S)[nH]c2c1)N1CCCCC1	Nrf2 block 7.3µM
COC(=O)c1ccc(C(=O)OC)c(NC(=O)CCS(=O)(=O)Cc2ccccc2)c1	none
COC(=O)c1ccc(C(=O)OC)c(NC(=O)CCC(=O)O)c1	ClpP mod 28µM
Cc1ccc(NS(=O)(=O)c2cc3c(cc2N(C)C)NC(=O)CC3)cc1C	none (no result: TCR act, Nrf2 activator, ClpP mod, miR-21 reporter)
COc1cc2c(cc1OC)C(C)N(CC(=O)Nc1ccc(C)c(S(=O)(=O)N3CCOCC3)c1)CC2 (stereo unspecified)	none
Cc1ccc(NC(=O)CN2CCc3cc4c(cc3C2C)OCCCO4)cc1C (stereo unspecified)	Nrf2 block 26µM
CC1c2cc3c(cc2CCN1CC(=O)Nc1ccccc1)OCCCO3 (stereo unspecified)	Nrf2 block 18µM
Cc1ccc(NC(=O)CN2CCc3cc4c(cc3C2C)OCCCO4)cc1 (stereo unspecified)	none
O=C1c2cccc(OCc3ccc(F)cc3)c2CCN1Cc1ccc(F)cc1	Nrf2 block 16µM
O=C(c1ccc(Cl)cc1)c1cnc(-c2ccccc2)s1	ClpP mod 20µM
Nc1c(NC=O)c(=O)n(Cc2ccccc2)c(=O)n1Cc1ccccc1	none (no result: miR-21 reporter)
N#CC(C#N)=C(Nc1ccc(F)cc1)SCc1cccc(F)c1	Nrf2 activator inconclusive, Nrf2 block 4.6µM, miR-21 reporter inconclusive, A549 tox inconclusive
Cc1ccc(NCCC(=O)c2cccs2)cc1C	Nrf2 activator 22µM, Nrf2 block inconclusive
Cc1ccc(NCCC(=O)c2cccs2)cc1Cl	Nrf2 activator inconclusive
COc1ccc(N(Cc2ccccc2)S(=O)(=O)c2cccc(C(=O)Nc3ncccc3C)c2)cc1	Nrf2 block 18µM (no result: miR-21 reporter)
Cc1cc(C)c(NC(=O)CN(C)S(=O)(=O)c2ccc3c(c2)n(C)c(=O)c(=O)n3C)c(C)c1	Nrf2 block inconclusive
Cc1ccc(NC(=O)CN(C)S(=O)(=O)c2ccc3c(c2)n(C)c(=O)c(=O)n3C)c(C)c1	ClpP mod 32µM!, Nrf2 block inconclusive
Cc1cc(C(=O)NCCCn2ccnc2)sc1-c1ccccc1	ClpP mod 22µM, Nrf2 block inconclusive
Cc1ccc2nc(-c3ccccc3)cc(C(=O)NCCCn3ccnc3)c2c1	ClpP mod 16µM
Cc1cc(C)c(C)c(S(=O)(=O)Nc2ccccc2C(=O)NCCCn2ccnc2)c1C	ClpP mod 35µM
O=C(NCCCn1ccnc1)c1cc2nc(-c3ccc(Br)cc3)cc(C(F)(F)F)n2n1	Nrf2 block 21µM, A549 tox inconclusive
CCOCCOC(=O)Cn1cnc2scc(-c3ccc(C)cc3)c2c1=O	none
CCOc1ccccc1C(=O)Nc1cc(-c2nc3cccnc3s2)ccc1C	Nrf2 block inconclusive (no result: TCR act)
COc1cc(/C=N/N=C(/N)c2nonc2N)cc(Br)c1OCc1cccc(C)c1	Nrf2 block 21µM
CCOc1cc(/C=N/N=C(\N)c2nonc2N)cc(Br)c1OCc1cccc2ccccc12	Nrf2 block 21µM, A549 tox inconclusive
CCOc1cc(/C=N/NC(N)=S)cc(Br)c1OCc1ccccc1C	Nrf2 block inconclusive
Cc1cccc(C)c1Nc1c(-c2ccsc2)nc2ccccn12	ClpP mod 28µM, Nrf2 block 18µM (no result: TCR act)
COc1ccc(OC)c(NC(=O)C(OC(=O)CNC(=O)c2ccccc2)c2ccccc2)c1 (stereo unspecified)	none (no result: TCR act, Nrf2 activator, ClpP mod, miR-21 reporter)
